The source of these data is article PMC12277127 (Nucleic Acids Research, 2024).

The target in the assay is T1, mono-ubiquitin (human, UniProt P0CG48 1-76).
T1 construct: ubiquitin, human (hUb), the 76-residue mature protein cut from a polyubiquitin or fusion precursor; source: E. coli BL21(DE3), purified (tag-free from pGEX-6P1-hUb, or His-tagged from pNIC28-Ub)
Briefly: SPR; SPRTN PIP-UBZ amine-coupled to a CM5 chip (~1000 RU); analytes monoUb, PCNA, monoUb-PCNA; 50 mM HEPES pH 7.4, 50 mM NaCl, 0.5 mM TCEP-HCl; steady-state affinity model. Particulars: both partners purified. For orientation: In SPR one partner is held on a chip, and binding of the other changes the refractive index at the surface.

B1: SPRTN PIP-UBZ (320-489) (domain or fragment, human, UniProt Q9H040 320-489, looked up)
chain: VSNSHQNVLSNYFPRVSFANQKAFRGVNGSPRISVTVGNIPKNSVSSSSQRRVSSSKISLRNSSKVTESASVMPSQDVSGSEDTFPNKRPRLEDKTVFDNFFIKKEQIKSSGNDPKYSTTTAQNSSSSSSQSKMVNCPVCQNEVLESQINEHLDWCLEGDSIKVKSEESL
notes: SPRTN, human, PIP box to UBZ, residues 320-489; plasmid pCold I-SPRTN-PIP-UBZ (320-489); Its purification is not described; amine-coupled to a CM5 chip for SPR
By Kd is commonly meant the concentration at which binding is half-saturated. Lower therefore signals a tighter complex. On to B1, for which binding was put at a Kd of 4.2 ± 0.9 µM.
